These results are taken from US20100222282A1, “METHOD OF DIAGNOSIS AND METHOD OF TREATMENT” (ENTRESS AB, priority 2006, published 2010).

Values joined by “and” are separate entries in the source; they are usually repeats but may differ in a detail not shown here. Identical values can stand only once. Like-named read-outs stand apart in the source and are kept apart here.

For the data set the following is noted: for AKG Day 1 (blood, individual rats): beginning of the experiment, baseline. An excerpt: The aim of this experiment was to study the relationship between the blood level of AKG and survival of elderly rats. Forty Sprague-Dawley rats randomly chosen (2-3 years old) from the Department of Cell & Organisms Biology in Lund University were used in the experiment. The rats were divided into four groups, 10 rats each, two control groups and two experiment groups. […] The mixtures were titrated with 0.01 M NaOH to correct the pH.
Blood samples were taken at the beginning of the experiment from all rats and blood AKG levels were estimated. Experimental time was 8 weeks and parameters as AKG blood levels and survival were monitored.

On to `O=C([O-])CCC(=O)C(=O)[O-].[Na+].[Na+]` [Na2AKG * 2H2O, sodium alpha-ketoglutarate], for which the “AKG Day 1 (blood, individual rats)” value by setting is: (Experiment Group I (2.28 g)) 0.15 µg/mL and 0.23 µg/mL; (Experiment Group II (22.8 g)) <0.1 µg/mL and 0.34 µg/mL. The “AKG Day 56 (blood, individual rats)” value (Experiment Group I (2.28 g), end of the experiment) is 0.9 µg/mL.
